Here are results for one substance from patent US9433573B2, “Microfabricated nanopore device for sustained release of therapeutic agent” (Delpor, Inc., priority 2001, dated 2016).

Take bovine serum albumin [BSA]: under “NanoGATE implants 7 μg/day or 15 μg/day, days 10 through 50, rats”, the “BSA clearance from blood, second phase” value is listed as “slowly cleared”. The “BSA clearance from the blood stream” value (one-time 125 μg bolus, subcutaneous injection, rats) is “rapid clearance”.
